Values of other authors, collected in paper PMC8049364, “Quantification of Macrophage-Driven Inflammation During Myocardial Infarction with ^18F-LW223, a Novel TSPO Radiotracer with Binding Independent of the rs6971 Human Polymorphism” (Journal of Nuclear Medicine, 2021).

Details: cited from earlier work

## 2-[F-18]fluoro-2-deoxy-D-glucose
  dosimetry (effective dose): 0.029 mSv/MBq
